Laboratory results published in patent US20060094763A1, “Polymorphic forms of 6-[2-(methylcarbomoyl) phenyl sulfanyl]-3-E-[2-(pyridin-2-yl)ethenyl]indazole” (Agouron Pharmaceuticals, Inc., priority 2004, published 2006).

Assay: Salt screening: solubility of in situ acid salts of Compound 1 in 100 mM acid solutions (HPLC)
Details: 100 mM acid solution, excess solid
Experimental: To ensure that the maximum solubility level was reached, the samples were checked periodically to ensure that excess solid was present. After 8 days 400 μL of the mixture was removed and centrifuged at 14,000 rpm for 5 minutes. 100 μL of the supernatant was then removed, diluted with 900 μL of a 1:1 mixture of acetonitrile/methanol, and then analyzed by HPLC.

Maleic acid
Solubility 8 days (stirred 8 days in the dark): 69 µg/mL | Solubility 14 days (stirred 14 days in the dark): 68 µg/mL
